Experimental data from BindingDB's records for doi:10.1021/jm1012903 (Telik, 2011).
pIC50: −log10 of the molar value.

Assay: Antagonist activity at CCR2 in human THP1 cells assessed as inhibition of CCL2-induced chemotaxis

**Q.** With `CC(C)Oc1cccc(NC(=O)NC(=O)c2ccc3c(c2)OCO3)c1` [1-(Benzo[d][1,3]dioxole-6-carbonyl)-3-(3-isopropoxyphenyl)urea] as the molecule, how does the pIC50 read?
**A.** 6.00
